Earlier results, collected in patent US12157750B2, “Bright targetable red CA2+ indicators” (HOWARD HUGHES MEDICAL INSTITUTE, priority 2019, dated 2024).

Assays:
[1] = known indicator, cited from earlier work
[2] = known indicator, literature value (ref. 15); saturating Ca2+; cited from earlier work

Oregon Green BAPTA-1 [Compound 1]
λem ([1]; literature value (ref. 15)): 523 nm
λmax ([1]; literature value (ref. 15)): 492 nm
excitation maxima (λex) ([1]; literature value): 492 nm
ϕsat [2]: 0.70
